Data from article PMC12595434, “Development of retinoid nuclear receptor pathway antagonists through targeting aldehyde dehydrogenase 1A3” (iScience, 2025).

The chains behind the UniProt entries cited, without tags or fusion partners.
UniProt P14416, whole entry: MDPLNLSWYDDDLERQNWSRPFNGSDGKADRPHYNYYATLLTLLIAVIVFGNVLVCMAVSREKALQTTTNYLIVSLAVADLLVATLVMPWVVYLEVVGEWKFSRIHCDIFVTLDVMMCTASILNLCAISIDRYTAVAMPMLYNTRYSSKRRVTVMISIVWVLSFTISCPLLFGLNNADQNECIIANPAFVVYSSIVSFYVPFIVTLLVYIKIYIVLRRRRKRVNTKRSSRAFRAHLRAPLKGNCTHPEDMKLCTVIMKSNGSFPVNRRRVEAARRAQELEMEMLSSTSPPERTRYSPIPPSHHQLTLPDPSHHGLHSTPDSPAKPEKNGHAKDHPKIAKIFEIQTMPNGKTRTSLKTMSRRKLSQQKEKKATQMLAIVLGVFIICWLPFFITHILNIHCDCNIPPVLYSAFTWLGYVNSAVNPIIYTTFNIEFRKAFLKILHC
UniProt P21397, whole entry: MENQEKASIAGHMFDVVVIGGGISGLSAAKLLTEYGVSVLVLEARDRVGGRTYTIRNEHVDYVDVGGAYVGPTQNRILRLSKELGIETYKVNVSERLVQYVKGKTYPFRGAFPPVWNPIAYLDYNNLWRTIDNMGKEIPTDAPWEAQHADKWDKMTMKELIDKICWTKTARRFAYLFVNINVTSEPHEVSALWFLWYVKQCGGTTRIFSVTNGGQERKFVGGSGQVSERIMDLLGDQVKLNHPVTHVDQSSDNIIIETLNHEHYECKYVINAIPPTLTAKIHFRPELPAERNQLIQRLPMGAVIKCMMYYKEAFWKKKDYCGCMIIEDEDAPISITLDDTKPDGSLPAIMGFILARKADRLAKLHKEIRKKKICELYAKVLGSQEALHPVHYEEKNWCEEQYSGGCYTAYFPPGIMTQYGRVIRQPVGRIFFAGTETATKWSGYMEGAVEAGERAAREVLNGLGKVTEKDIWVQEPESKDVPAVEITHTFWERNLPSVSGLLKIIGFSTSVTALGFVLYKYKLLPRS

Columns and labels:
D2 = D2 (Homo sapiens, UniProt P14416); assay: Off-target profiling panel; type: binding; conditions: 7-OH-DPAT 1,000 nM
Method: To assess the in vivo pharmacokinetics of MBE1, we assessed the measured plasma concentrations following a 1 mg/kg intravenous or 10 mg/kg oral dose of MBE1 in fasted male CD-1 mice.

MAO-A = MAO-A (Homo sapiens, UniProt P21397); assay: Off-target profiling panel; type: biochemical; conditions: clorgyline 1,000 nM

| Structure (SMILES) | Inhibition by reference at listed dose (%) (D2) | Inhibition by reference at listed dose (%) (MAO-A) |
| --- | --- | --- |
| CCCN(CCC)C1CCc2ccc(O)cc2C1 (centres unmarked) [7-OH-DPAT, reference compound] | 100.10% | – |
| C#CCN(C)CCCOc1ccc(Cl)cc1Cl [clorgyline, reference compound] | – | 99.9% |
